Experiment [1] relates to C2C12 cells. The experiment in a line: High-throughput screen for small molecules that augment BMP-2 induced ALP expression (osteoblast conversion). To be noted: positive control wells, DM + BMP-2, 72 h. It counts as cell-based, mouse. The text has this:
FIGS. 4A-4B show a schematic of an exemplary protocol for high-throughput screening of small molecules to investigate BMP-2 induced promotion of osteoblast formation. […] The level of alkaline phosphatase (ALP) activity measured colorimetrically was scored in all wells using three criteria (see Exemplary materials and methods in the Examples section). […] FIG. 4B is a schematic of 5405 compounds tested on C2C12 cells in a 384-well plate format, in duplicate for BMP-2 induced ALP expression*. ALP intensity images were acquired using a Digilab Plate reader. Images were analyzed using three independent criteria and considered for secondary screening and validation in the MC3T3 pre-osteoblast cell line Enhancement of the mRNA and protein levels of the mature osteoblast markers RunX2 and osterix was tested. *Plates were run in duplicate.
In the course of the studies on muscle differentiation using the C2C12 cell line, incomplete BMP-2-mediated conversion of C2C12 cells to osteoblasts was observed based on ALP staining with virtually no background in untreated cells. Accordingly, this system was used to screen a library of compounds that augment BMP-2 mediated osteoblast conversion. C2C12 cells were plated at 750 cells per well in a 384-square well plate and were allowed to adhere for 24 h in growth media (GM). […]

The subject of experiment [2] is MC3T3 cells. The experiment is described as follows: TGFβ1 mediated inhibition of osteoblast differentiation, qRT-PCR of Runx2, Osx and Smad 7. It counts as cell-based, mouse. The conditions noted are these: factor alone. Here is the method: MC3T3 cells were treated with media containing 1 ng/mL of TGFβ1 for 24 h and then the media were replaced with BMP-2 or BMP-2 with 100 ng/mL rapamycin. RNA was collected 24 h afterwards and analyzed by qRT-PCR and the ΔΔCT method. (FIG. 10A) Values of Runx2 and Osx transcripts are represented as fold change compared with untreated samples (*indicates p-value=0.02). (FIG. 10B) Values of Smad 7 transcripts. Shown are representative results (average of duplicates) of at least three independent experiments. (*indicates p-value=0.03).
It was next sought to determine whether rapamycin and FK506 were equivalently capable of attenuating TGFβ1 mediated decline in osteoblastogenesis, an antagonistic effect that has been previously reported.
It was next sought to determine whether Smad-7, a suppressor of Smad-2/3 downstream of TGFβ1, might be a target of rapamycin and/or FK-506.
Total RNA was extracted by the TRIzol method as recommended by the manufacturer (Invitrogen). Isolated RNA was cleaned up using the Rneasy Kit (Qiagen) and 500 ng of RNA was reverse-transcribed using the High Capacity cDNA Synthesis Kit (Applied Biosystems #4368813). Taqman expression assays were used for detection. The expression of 18S (Applied Biosystems #4319413E) was used for normalization of gene expression values. […] Quantification was determined using the ΔΔCT method and normalized to the untreated sample.
Background: Real-time PCR tracks product formation cycle by cycle.

From patent US20150285789A1, “ASSAYS, SYSTEMS, AND METHODS FOR OBTAINING PERSONALIZED ANABOLIC PROFILES” (BOSTON MEDICAL CENTER CORPORATION, priority 2012, published 2015) come the findings set out here.

B1: BMP-2: bone morphogenetic protein-2, positive control and bone formation-inducing agent (protein, UniProt P12643 283-396, looked up)
Bone morphogenetic protein 2: QAKHKQRKRLKSSCKRHPLYVDFSDVGWNDWIVAPPGYHAFYCHGECPFPLADHLNSTNHAIVQTLVNSVNSKIPKACCVPTELSAISMLYLDENEKVVLKNYQDMVVEGCGCR
Regarding B1, in experiment [1], the “ALP expression, % of the cells” value is recorded as 20-30%. The Smad-7 levels result in experiment [2] was “induces Smad-7”.
